Test results reported in patent US7189706B2, “C2,5′-disubstituted and N6,C2,5′-trisubstituted adenosine derivatives and pharmaceutical compositions containing them” (Universiteit Leiden, priority 2001, dated 2007).

Sequences of proteins named here, by UniProt entry; tags and fusion partners are left off.
UniProt P0DMS8, whole entry: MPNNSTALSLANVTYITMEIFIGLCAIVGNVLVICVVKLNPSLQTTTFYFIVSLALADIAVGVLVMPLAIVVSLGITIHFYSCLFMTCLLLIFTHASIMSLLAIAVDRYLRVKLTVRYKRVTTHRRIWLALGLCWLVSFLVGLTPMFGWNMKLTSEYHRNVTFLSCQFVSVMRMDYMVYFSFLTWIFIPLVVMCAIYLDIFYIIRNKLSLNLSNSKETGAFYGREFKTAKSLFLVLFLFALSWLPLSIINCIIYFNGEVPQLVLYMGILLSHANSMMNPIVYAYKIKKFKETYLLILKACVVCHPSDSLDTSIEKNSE

Molecular target: T1, human A3 receptor as expressed in HEK 293 cells (Homo sapiens, UniProt P0DMS8)
T1 construct: expressed in transfected cells; host or cells: HEK 293 cell membranes
Experiment: Radioligand binding assay, displacement of [125I]AB-MECA (adenosine A3)
Conditions: ratio of Ki values of Table 2 (rat A2A / human A3)

A2A/A3 selectivity ratio: 15 fold
Substance: 5′-Deoxy-2-iodo-5′-methylthioadenosine [Compound 33]
